{
  "sequences": {"note": "Sequences of proteins named here, by UniProt entry; tags and fusion partners are left off. A change or cut given only in a name is not applied to a line headed by its entry.", "UniProt P01106": "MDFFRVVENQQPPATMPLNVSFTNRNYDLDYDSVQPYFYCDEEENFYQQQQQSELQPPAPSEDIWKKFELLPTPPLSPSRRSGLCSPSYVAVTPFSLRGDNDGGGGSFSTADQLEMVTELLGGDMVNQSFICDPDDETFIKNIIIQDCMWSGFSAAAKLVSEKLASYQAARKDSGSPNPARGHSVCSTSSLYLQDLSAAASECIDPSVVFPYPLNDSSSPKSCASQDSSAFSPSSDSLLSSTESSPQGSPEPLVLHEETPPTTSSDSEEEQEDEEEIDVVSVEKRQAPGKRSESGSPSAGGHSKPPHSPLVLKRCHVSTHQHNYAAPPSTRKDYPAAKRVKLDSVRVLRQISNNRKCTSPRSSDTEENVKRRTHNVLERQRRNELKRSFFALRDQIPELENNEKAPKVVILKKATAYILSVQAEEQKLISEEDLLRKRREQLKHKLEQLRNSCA"},
  "source": "PubChem BioAssay (EPA / NIEHS)",
  "note": "Values joined by “and” are separate entries in the source; they are usually repeats but may differ in a detail not shown here. Equal entries are not always repeated. The entries are a selection whose mix differs from that of the whole data set. Active and inactive are the calls of the source. How the source made its calls: active means hit-call score of the fitted dose curve at least 0.9, where 1 is the maximum; inactive means score below 0.9.",
  "data": [
    {"molecular_target": "Myc proto-oncogene protein (Homo sapiens) (UniProt P01106)", "test": "ATG_Myc_CIS: Attagene CIS-FACTORIAL HepG2 Assay for human Myelocytomatosis (Myc) Proto-Oncogene Transcription Factor (AID 2282990)", "details": "HepG2, Attagene cis-reporter transcription factor activity; actives raise or lower the signal", "in_short": "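Multiplexed cis-reporter transcription in HepG2 cells after 24 h chemical treatment. Reporter mRNA measured by RT-PCR and capillary electrophoresis fluorescence; activity fitted bidirectionally against DMSO control.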", "values": [
      {"smiles": "Cc1cc([N+](=O)[O-])cc([N+](=O)[O-])c1O", "outcome": "inactive"},
      {"smiles": "O=[N+]([O-])c1ccc([N+](=O)[O-])cc1", "AC50": "active: 100 µM"},
      {"smiles": "CCCCOP(OCCCC)OCCCC", "outcome": "inactive"},
      {"smiles": "O=P(Cl)(Oc1ccccc1)Oc1ccccc1", "outcome": "inactive"},
      {"smiles": "ClP(Cl)c1ccccc1", "outcome": "inactive"},
      {"smiles": "O=C1C2CC=CCC2C(=O)N1SC(Cl)(Cl)C(Cl)Cl", "note": "(stereo not given)", "outcome": "inactive"},
      {"smiles": "N#CSc1ccc([N+](=O)[O-])cc1[N+](=O)[O-]", "outcome": "inactive"},
      {"smiles": "CC(C)OP(=S)(OC(C)C)SCCNS(=O)(=O)c1ccccc1", "outcome": "inactive"},
      {"smiles": "O=[P+](Oc1ccccc1)Oc1ccccc1", "outcome": "inactive"},
      {"smiles": "CCCCC(CC)CO[P+](=O)OCC(CC)CCCC", "note": "(stereo not given)", "outcome": "inactive"},
      {"smiles": "CC(C)CCCCCCCOP(OCCCCCCCC(C)C)Oc1ccccc1", "outcome": "inactive"},
      {"smiles": "O=C(Cl)Oc1ccccc1", "outcome": "inactive"},
      {"smiles": "CN(C(=O)Cc1cccc2occc12)[C@H]1CC[C@@]2(CCCO2)C[C@@H]1N1CCCC1", "outcome": "inactive"},
      {"smiles": "O=C(Cl)OCCOC(=O)Cl", "outcome": "inactive"},
      {"smiles": "CCCCO[P+](=O)OCCCC", "outcome": "inactive"},
      {"smiles": "O=[As]c1ccccc1", "note": "(stereo not given)", "AC50": "active: 0.278 µM"},
      {"smiles": "O=[p+]1oc2ccccc2c2ccccc21", "note": "(stereo not given)", "outcome": "inactive"}
    ]},
    {"system": "not listed separately", "test": "ATG_NF_kB_CIS: Attagene CIS-FACTORIAL HepG2 Assay for human Nuclear Factor Kappa B (NF-kB) (AID 2282991)", "details": "HepG2 Attagene cis-factorial NF-kB reporter mRNA; actives raise or lower the signal", "in_short": "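Fluorescence of labelled RT-PCR products separated by capillary electrophoresis gives reporter mRNA levels from transfected HepG2 cells exposed 24 h; values are fitted in both directions relative to DMSO.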", "values": [
      {"smiles": "Cc1cc([N+](=O)[O-])cc([N+](=O)[O-])c1O", "outcome": "inactive"},
      {"smiles": "O=[N+]([O-])c1ccc([N+](=O)[O-])cc1", "outcome": "inactive"},
      {"smiles": "CCCCOP(OCCCC)OCCCC", "outcome": "inactive"},
      {"smiles": "O=P(Cl)(Oc1ccccc1)Oc1ccccc1", "outcome": "inactive"},
      {"smiles": "ClP(Cl)c1ccccc1", "outcome": "inactive"},
      {"smiles": "O=C1C2CC=CCC2C(=O)N1SC(Cl)(Cl)C(Cl)Cl", "note": "(stereo not given)", "outcome": "inactive"},
      {"smiles": "CCCCC(CC)CO[P+](=O)OCC(CC)CCCC", "note": "(stereo not given)", "outcome": "inactive"},
      {"smiles": "CC(C)CCCCCCCOP(OCCCCCCCC(C)C)Oc1ccccc1", "outcome": "inactive"},
      {"smiles": "O=C(Cl)Oc1ccccc1", "outcome": "inactive"},
      {"smiles": "CN(C(=O)Cc1cccc2occc12)[C@H]1CC[C@@]2(CCCO2)C[C@@H]1N1CCCC1", "AC50": "active: 147 µM"},
      {"smiles": "O=C(Cl)OCCOC(=O)Cl", "outcome": "inactive"},
      {"smiles": "CCCCO[P+](=O)OCCCC", "outcome": "inactive"},
      {"smiles": "O=[p+]1oc2ccccc2c2ccccc21", "note": "(stereo not given)", "outcome": "inactive"}
    ]},
    {"system": "not listed separately", "test": "ATG_NRF2_ARE_CIS: Attagene CIS-FACTORIAL HepG2 Assay for human Nuclear Factor Erythroid 2 Related Factor 2 (NFR2) response to Antioxidant Response Elements (ARE) (AID 2282992)", "details": "HepG2 Attagene ARE/NRF2 reporter, transcription factor activity; actives raise or lower the signal", "in_short": "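Readout: reporter mRNA quantified by RT-PCR plus FAM-labelled primer extension, HpaI digestion and capillary electrophoresis, 24 h after dosing transfected HepG2 cells. Gain or loss of signal is fitted bidirectionally against DMSO baseline.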", "values": [
      {"smiles": "O=[N+]([O-])c1ccc([N+](=O)[O-])cc1", "AC50": "active: 70.8 µM"},
      {"smiles": "CCCCOP(OCCCC)OCCCC", "outcome": "inactive"},
      {"smiles": "O=P(Cl)(Oc1ccccc1)Oc1ccccc1", "outcome": "inactive"},
      {"smiles": "ClP(Cl)c1ccccc1", "outcome": "inactive"},
      {"smiles": "O=C1C2CC=CCC2C(=O)N1SC(Cl)(Cl)C(Cl)Cl", "note": "(stereo not given)", "outcome": "inactive"},
      {"smiles": "CC(C)OP(=S)(OC(C)C)SCCNS(=O)(=O)c1ccccc1", "AC50": "active: 98.7 nM and active: 71.2 nM and active: 95.8 nM"},
      {"smiles": "O=[P+](Oc1ccccc1)Oc1ccccc1", "outcome": "inactive"},
      {"smiles": "CCCCC(CC)CO[P+](=O)OCC(CC)CCCC", "note": "(stereo not given)", "outcome": "inactive"},
      {"smiles": "CC(C)CCCCCCCOP(OCCCCCCCC(C)C)Oc1ccccc1", "AC50": "active: 60.3 µM"},
      {"smiles": "O=C(Cl)Oc1ccccc1", "AC50": "active: 37.8 µM"},
      {"smiles": "CN(C(=O)Cc1cccc2occc12)[C@H]1CC[C@@]2(CCCO2)C[C@@H]1N1CCCC1", "outcome": "inactive"},
      {"smiles": "O=C(Cl)OCCOC(=O)Cl", "outcome": "inactive"},
      {"smiles": "CCCCO[P+](=O)OCCCC", "outcome": "inactive"},
      {"smiles": "O=[As]c1ccccc1", "note": "(stereo not given)", "AC50": "active: 0.104 µM"},
      {"smiles": "O=[p+]1oc2ccccc2c2ccccc21", "note": "(stereo not given)", "outcome": "inactive"}
    ]}
  ]
}
